Measurements reported in patent US11186582B2, “Substituted [1,2,4]triazolo[1,5-a]pyrimidin-7-yl compounds as PDE2 inhibitors” (DART NEUROSCIENCE (CAYMAN) LTD., priority 2014, dated 2021).

The chains behind the UniProt entries cited, without tags or fusion partners. Residues count along the entry.
UniProt O00408, 2-941: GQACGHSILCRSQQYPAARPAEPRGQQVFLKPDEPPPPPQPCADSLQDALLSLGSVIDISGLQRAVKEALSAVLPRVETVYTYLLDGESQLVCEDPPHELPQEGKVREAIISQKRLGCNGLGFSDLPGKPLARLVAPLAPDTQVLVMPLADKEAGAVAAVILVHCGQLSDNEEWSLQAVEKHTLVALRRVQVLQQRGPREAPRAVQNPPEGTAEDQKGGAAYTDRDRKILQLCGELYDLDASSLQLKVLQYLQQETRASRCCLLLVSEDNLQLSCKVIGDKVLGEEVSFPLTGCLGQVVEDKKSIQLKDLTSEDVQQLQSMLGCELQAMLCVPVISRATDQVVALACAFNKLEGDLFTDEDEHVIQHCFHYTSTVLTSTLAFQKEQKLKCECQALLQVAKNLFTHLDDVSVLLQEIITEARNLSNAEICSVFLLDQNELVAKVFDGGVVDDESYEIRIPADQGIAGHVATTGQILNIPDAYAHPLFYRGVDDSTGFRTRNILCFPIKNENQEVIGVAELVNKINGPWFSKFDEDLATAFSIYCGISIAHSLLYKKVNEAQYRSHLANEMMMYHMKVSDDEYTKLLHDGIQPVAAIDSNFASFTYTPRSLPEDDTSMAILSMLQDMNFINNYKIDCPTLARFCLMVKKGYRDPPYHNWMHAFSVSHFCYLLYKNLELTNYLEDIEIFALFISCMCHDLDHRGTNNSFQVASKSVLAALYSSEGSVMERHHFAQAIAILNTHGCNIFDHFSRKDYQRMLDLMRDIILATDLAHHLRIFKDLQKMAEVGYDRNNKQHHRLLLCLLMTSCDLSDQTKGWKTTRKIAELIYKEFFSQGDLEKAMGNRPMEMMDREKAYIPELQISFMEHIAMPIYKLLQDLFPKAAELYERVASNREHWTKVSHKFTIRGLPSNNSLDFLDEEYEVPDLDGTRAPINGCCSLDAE

The compounds below were run against FLAG-tagged PDE2A1 (amino acids 2-941) (Homo sapiens (Human), UniProt O00408) (assay: IMAP TR-FRET PDE2A phosphodiesterase enzymatic assay). Details: not given.

| Structure (SMILES) | IC50 |
| --- | --- |
| COc1ccc(OC)c(CN2CCCC(c3cc(C)nc4ncnn34)C2)c1 (centres unmarked) [Example 72, 1-[(2,5-Dimethoxyphenyl)methyl]-3-{5-methyl-[1,2,4]triazolo[1,5-a]pyrimidin-7-yl}piperidine] | > 10000 nM |
| COc1cc(CN2CCCC(c3cc(C)nc4ncnn34)C2)ccc1Cl (centres unmarked) [Example 167, 1-[(4-Chloro-3-methoxyphenyl)methyl]-3-{5-methyl-[1,2,4]triazolo[1,5-a]pyrimidin-7-yl}piperidine] | 1000 to 10000 nM |
| CCn1nccc1C(=O)N1CCCC(c2cc(C)nc3ncnn23)C1 (centres unmarked) [Example 443, 1-[(1-Ethyl-1H-pyrazol-5-yl)carbonyl]-3-{5-methyl-[1,2,4]triazolo[1,5-a]pyrimidin-7-yl}piperidine] | 1000 to 10000 nM |
| COc1ccc(CN2CCCC(c3cc(C)nc4ncnn34)C2)c(F)c1 (centres unmarked) [Example 103, 1-[(2-Fluoro-4-methoxyphenyl)methyl]-3-{5-methyl-[1,2,4]triazolo[1,5-a]pyrimidin-7-yl}piperidine] | 1000 to 10000 nM |
| Cc1cc([C@@H]2CN(C(=O)c3cc(F)c(F)c(F)c3)CC(F)(F)C2)n2ncnc2n1 [Example 311, (5S)-3,3-Difluoro-5-{5-methyl-[1,2,4]triazolo[1,5-a]pyrimidin-7-yl}-1-(3,4,5-trifluorobenzoyl)piperidine] | 100 to 1000 nM |
| Cc1cc(C2CN(C(=O)c3csc4ccccc34)CCO2)n2ncnc2n1 (centres unmarked) [Example 541, 4-(1-Benzothiophene-3-carbonyl)-2-{5-methyl-[1,2,4]triazolo[1,5-a]pyrimidin-7-yl}morpholine] | 100 to 1000 nM |
| Cc1cc(C2CCCN(Cc3cccc(F)c3)C2)n2ncnc2n1 (centres unmarked) [Example 114, 1-[(3-Fluorophenyl)methyl]-3-{5-methyl-[1,2,4]triazolo[1,5-a]pyrimidin-7-yl}piperidine] | 1000 to 10000 nM |
| Cc1cc(C2CCCN(Cc3ccc(-c4ccccc4Cl)cc3F)C2)n2ncnc2n1 (centres unmarked) [Example 22, 1-{[4-(2-Chlorophenyl)-2-fluorophenyl]methyl}-3-{5-methyl-[1,2,4]triazolo[1,5-a]pyrimidin-7-yl}piperidine] | 1000 to 10000 nM |
| Cc1cc(C2CCCN(Cc3cccc(-c4ccccc4Cl)c3)C2)n2ncnc2n1 (centres unmarked) [Example 30, 1-{[3-(2-Chlorophenyl)phenyl]methyl}-3-{5-methyl-[1,2,4]triazolo[1,5-a]pyrimidin-7-yl}piperidine] | 1000 to 10000 nM |
| Cc1cc([C@H]2CN(C(=O)c3cccc(Br)c3)CCO2)n2ncnc2n1 [Example 250, (2R)-4-[(3-Bromophenyl)carbonyl]-2-{5-methyl-[1,2,4]triazolo[1,5-a]pyrimidin-7-yl}morpholine] | > 10000 nM |
| Cc1cc(C2CCCN(Cc3ccc(OC(F)(F)F)cc3)C2)n2ncnc2n1 (centres unmarked) [Example 156, 3-{5-Methyl-[1,2,4]triazolo[1,5-a]pyrimidin-7-yl}-1-{[4-(trifluoromethoxy)phenyl]methyl}piperidine] | 1000 to 10000 nM |
| Cc1cc(C2CCCN(Cc3ccc(C)c(Br)c3)C2)n2ncnc2n1 (centres unmarked) [Example 169, 1-[(3-Bromo-4-methylphenyl)methyl]-3-{5-methyl-[1,2,4]triazolo[1,5-a]pyrimidin-7-yl}piperidine] | 100 to 1000 nM |
| Cc1cc(C2CCCN(C(=O)c3ccc(Cl)cc3F)C2)n2ncnc2n1 (centres unmarked) [Example 440, 1-[(4-Chloro-2-fluorophenyl)carbonyl]-3-{5-methyl-[1,2,4]triazolo[1,5-a]pyrimidin-7-yl}piperidine] | 100 to 1000 nM |
| Cc1cc(C2CCCN(Cc3ccccc3N3CCOCC3)C2)n2ncnc2n1 (centres unmarked) [Example 50, 4-{2-[(3-{5-Methyl-[1,2,4]triazolo[1,5-a]pyrimidin-7-yl}piperidin-1-yl)methyl]phenyl}morpholine] | > 10000 nM |
| Cc1cc(C2CCCN(Cc3cccc(OC(C)C)c3)C2)n2ncnc2n1 (centres unmarked) [Example 126, 3-{5-Methyl-[1,2,4]triazolo[1,5-a]pyrimidin-7-yl}-1-{[3-(propan-2-yloxy)phenyl]methyl}piperidine] | 1000 to 10000 nM |
| Cc1cc(C2CCCN(C(=O)c3cccc(Cl)c3F)C2)n2ncnc2n1 (centres unmarked) [Example 483, 1-[(3-Chloro-2-fluorophenyl)carbonyl]-3-{5-methyl-[1,2,4]triazolo[1,5-a]pyrimidin-7-yl}piperidine] | 1000 to 10000 nM |
| Cc1cc(C2CCCN(Cc3cccc4c3OCO4)C2)n2ncnc2n1 (centres unmarked) [Example 65, 1-(2H-1,3-Benzodioxol-4-ylmethyl)-3-{5-methyl-[1,2,4]triazolo[1,5-a]pyrimidin-7-yl}piperidine] | > 10000 nM |
| Cc1cc(C2CCCN(C(=O)C3COc4ccccc4O3)C2)n2ncnc2n1 (centres unmarked) [Example 354, 1-[(2,3-Dihydro-1,4-benzodioxin-2-yl)carbonyl]-3-{5-methyl-[1,2,4]triazolo[1,5-a]pyrimidin-7-yl}piperidine] | 100 to 1000 nM |
| Cc1ccc(F)c(C(=O)N2CCCC(c3cc(C)nc4ncnn34)C2)c1 (centres unmarked) [Example 492, 1-[(2-Fluoro-5-methylphenyl)carbonyl]-3-{5-methyl-[1,2,4]triazolo[1,5-a]pyrimidin-7-yl}piperidine] | 100 to 1000 nM |
| Cc1cc(C2CN(C(=O)c3ccc4ccncc4c3)CCO2)n2ncnc2n1 (centres unmarked) [Example 297, 7-[(2-{5-Methyl-[1,2,4]triazolo[1,5-a]pyrimidin-7-yl}morpholin-4-yl)carbonyl]isoquinoline] | 100 to 1000 nM |
| Cc1cc(C2CCCN(Cc3ccc(-n4cccc4)cc3)C2)n2ncnc2n1 (centres unmarked) [Example 56, 3-{5-Methyl-[1,2,4]triazolo[1,5-a]pyrimidin-7-yl}-1-{[4-(1H-pyrrol-1-yl)phenyl]methyl}piperidine] | 100 to 1000 nM |
| Cc1cc(C2CCCN(C(=O)c3cc(C4CC4)on3)C2)n2ncnc2n1 (centres unmarked) [Example 434, 1-[(5-Cyclopropyl-1,2-oxazol-3-yl)carbonyl]-3-{5-methyl-[1,2,4]triazolo[1,5-a]pyrimidin-7-yl}piperidine] | 100 to 1000 nM |
| Cc1cc(C2CN(C(=O)c3cc(Cl)ccc3F)CCO2)n2ncnc2n1 (centres unmarked) [Example 545, 4-(5-Chloro-2-fluorobenzoyl)-2-{5-methyl-[1,2,4]triazolo[1,5-a]pyrimidin-7-yl}morpholine] | 1000 to 10000 nM |
| Cc1cc(C2CCCN(Cc3ccc4c(c3)OCCO4)C2)n2ncnc2n1 (centres unmarked) [Example 73, 1-(2,3-Dihydro-1,4-benzodioxin-6-ylmethyl)-3-{5-methyl-[1,2,4]triazolo[1,5-a]pyrimidin-7-yl}piperidine] | > 10000 nM |
| Cc1cc(C2CCCN(Cc3c(C)nn(C(C)C)c3C)C2)n2ncnc2n1 (centres unmarked) [Example 122, 1-{[3,5-Dimethyl-1-(propan-2-yl)-1H-pyrazol-4-yl]methyl}-3-{5-methyl-[1,2,4]triazolo[1,5-a]pyrimidin-7-yl}piperidine] | > 10000 nM |
| Cc1cc(C2CCCN(C(=O)c3cccc(C(C)C)c3)C2)n2ncnc2n1 (centres unmarked) [Example 450, 3-{5-Methyl-[1,2,4]triazolo[1,5-a]pyrimidin-7-yl}-1-{[3-(propan-2-yl)phenyl]carbonyl}piperidine] | 100 to 1000 nM |
| Cc1cc(C2CN(C(=O)c3cc4ccccc4n3C)CCO2)n2ncnc2n1 (centres unmarked) [Example 533, 1-Methyl-2-(2-{5-methyl-[1,2,4]triazolo[1,5-a]pyrimidin-7-yl}morpholine-4-carbonyl)-1H-indole] | 100 to 1000 nM |
| COc1cccc(C(=O)N2CCCC(c3cc(C)nc4ncnn34)C2)c1 (centres unmarked) [Example 464, 1-[(3-Methoxyphenyl)carbonyl]-3-{5-methyl-[1,2,4]triazolo[1,5-a]pyrimidin-7-yl}piperidine] | 100 to 1000 nM |

Same assay, conditions: IMAP TR-FRET, 200 nM FAM-cAMP substrate, 11-point half-log dose-response

| Structure (SMILES) | PDE2 (pIC50) |
| --- | --- |
| COc1ccc(C(=O)N2CCCC(c3cc(C)nc4ncnn34)C2)cc1OC (centres unmarked) [Example 442, 1-[(3,4-Dimethoxyphenyl)carbonyl]-3-{5-methyl-[1,2,4]triazolo[1,5-a]pyrimidin-7-yl}piperidine] | >7 |
| Cc1cc(C2CCCN(C(=O)c3ccc4cccnc4c3)C2)n2ncnc2n1 (centres unmarked) [Example 396, 7-[(3-{5-Methyl-[1,2,4]triazolo[1,5-a]pyrimidin-7-yl}piperidin-1-yl)carbonyl]quinoline] | >7 |
| Cc1cc([C@@H]2CN(C(=O)c3c(F)c(F)c(F)c(Br)c3F)CC(F)(F)C2)n2ncnc2n1 [Example 282, (5S)-1-(3-Bromo-2,4,5,6-tetrafluorobenzoyl)-3,3-difluoro-5-{5-methyl-[1,2,4]triazolo[1,5-a]pyrimidin-7-yl}piperidine] | >7 |
| Cc1cc(C2CCCN(Cc3ccc4ccccc4c3)C2)n2ncnc2n1 (racemic) [Example 1, 3-{5-Methyl-[1,2,4]triazolo[1,5-a]pyrimidin-7-yl}-1-(naphthalen-2-ylmethyl)piperidine] | >7 |
| CCOc1ccc(C(=O)N2CCO[C@H](c3cc(C)nc4ncnn34)C2)cc1C [Example 285, (2S)-4-(4-Ethoxy-3-methylbenzoyl)-2-{5-methyl-[1,2,4]triazolo[1,5-a]pyrimidin-7-yl}morpholine] | >7 |
| Cc1cc([C@@H]2CN(C(=O)c3cccc(C4CC4)c3)CC(F)(F)C2)n2ncnc2n1 [Example 317, (5S)-1-(3-Cyclopropylbenzoyl)-3,3-difluoro-5-{5-methyl-[1,2,4]triazolo[1,5-a]pyrimidin-7-yl}piperidine] | >7 |
| Cc1cc(C2CCCN(C(=O)[C@@H]3COc4ccccc4C3)C2)n2ncnc2n1 (stereo partly drawn) [Example 367, 1-[(3S)-3,4-Dihydro-2H-1-benzopyran-3-carbonyl]-3-{5-methyl-[1,2,4]triazolo[1,5-a]pyrimidin-7-yl}piperidine] | >7 |
| Cc1cc(C2CN(C(=O)c3ccc4c(c3)CCO4)CC(F)(F)C2)n2ncnc2n1 (centres unmarked) [Example 362, 1-[(2,3-Dihydro-1-benzofuran-5-yl)carbonyl]-3,3-difluoro-5-{5-methyl-[1,2,4]triazolo[1,5-a]pyrimidin-7-yl}piperidine] | >7 |
| COc1ccc(C)cc1C(=O)N1CC(c2cc(C)nc3ncnn23)CC(F)(F)C1 (centres unmarked) [Example 511, 3,3-Difluoro-1-(2-methoxy-5-methylbenzoyl)-5-{5-methyl-[1,2,4]triazolo[1,5-a]pyrimidin-7-yl}piperidine] | >7 |
| Cc1cc(Cl)cc(C(=O)N2CCO[C@H](c3cc(C)nc4ncnn34)C2)c1 [Example 287, (2S)-4-(3-Chloro-5-methylbenzoyl)-2-{5-methyl-[1,2,4]triazolo[1,5-a]pyrimidin-7-yl}morpholine] | >7 |
